## Antibody variant affinities, Ab-14 heavy chain, assay 1

Values reported by Engelhart et al. 2022, doi:10.1038/s41597-022-01779-4 (FLAb copy).

The target is the same throughout: PDVDLGDISGINAS, from the HR2 region of SARS-CoV-2 spike.

Parent: Ab-14, a human scFv built as VH, a 15-residue (Gly4Ser)3 linker, VL. Only the CDRs of the heavy chain vary.
VH: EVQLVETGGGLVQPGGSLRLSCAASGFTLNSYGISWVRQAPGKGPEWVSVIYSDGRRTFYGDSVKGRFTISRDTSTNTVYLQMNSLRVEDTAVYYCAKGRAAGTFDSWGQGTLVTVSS
VL: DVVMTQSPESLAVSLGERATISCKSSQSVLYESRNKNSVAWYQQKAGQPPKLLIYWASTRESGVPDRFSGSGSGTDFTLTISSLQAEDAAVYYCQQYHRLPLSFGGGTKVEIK

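The parent was found by panning a naive human phage display library on the peptide. AAYL49 was designed without a model: most single CDR substitutions and a random sample of double and triple ones. In AlphaSeq, yeast of one mating type display the scFv and yeast of the other type display the target. Binding brings cells together so that they mate, and sequencing counts the barcode pairs among the diploids. A regression on co-assayed BCL2-family reference pairs converts the normalised counts of each replicate to an apparent Kd. The assay was run in three technical replicates.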

Positions count from residue 1 of the parent VH; G33V puts V in place of G.
Each Kd is an estimate from the mating assay, the geometric mean of the replicates in which the pair was seen; lower is stronger.
An entry "not detected" has no value in the source: the pair was not observed among the diploids in any replicate. This suggests poor binding but is not conclusive.
Three control strains display no target. For library AAYL49, 15% of the pairings with them gave a signal, with a median of 11 µM and one signal in twenty below 680 nM, so weak values seen in few replicates may be background.
In this assay the parent's reference entry averaged 4.4 nM; its copy inside this library read 13 µM (one replicate of three).

{"changes": "G33V+Y60M+V64F", "Kd (apparent)": "not detected", "replicates with signal": "0 of 3"}
{"changes": "L29Y+Y32C+D106I", "Kd (apparent)": "not detected", "replicates with signal": "0 of 3"}
{"changes": "R100D+G103V", "Kd (apparent)": "130 nM", "replicates with signal": "3 of 3"}
{"changes": "R56A+K65I+A101M", "Kd (apparent)": "150 µM", "replicates with signal": "2 of 3"}
{"changes": "G55Q+R56K+Y60F", "Kd (apparent)": "not detected", "replicates with signal": "0 of 3"}
{"changes": "F27G+V50R+R100F", "Kd (apparent)": "2.7 µM", "replicates with signal": "1 of 3"}
{"changes": "D54Y+T104F+F105Q", "Kd (apparent)": "61 µM", "replicates with signal": "3 of 3"}
{"changes": "G33Q+D54G+G61H", "Kd (apparent)": "2.0 µM", "replicates with signal": "1 of 3"}
{"changes": "R57C+R100G+A101R", "Kd (apparent)": "not detected", "replicates with signal": "0 of 3"}
{"changes": "S31E+G103H+F105K", "Kd (apparent)": "1.8 nM", "replicates with signal": "3 of 3"}
{"changes": "G26S+N30S+Y52V", "Kd (apparent)": "not detected", "replicates with signal": "0 of 3"}
{"changes": "G33S+T104N", "Kd (apparent)": "2.8 µM", "replicates with signal": "1 of 3"}
{"changes": "L29S+S31K+Y52I", "Kd (apparent)": "not detected", "replicates with signal": "0 of 3"}
{"changes": "Y60R+G61K+V64G", "Kd (apparent)": "not detected", "replicates with signal": "0 of 3"}
{"changes": "D54H+G55S+F59Y", "Kd (apparent)": "not detected", "replicates with signal": "0 of 3"}
{"changes": "Y52F+S53D+D62S", "Kd (apparent)": "36 µM", "replicates with signal": "1 of 3"}
{"changes": "T28M+R100Y+A101Q", "Kd (apparent)": "11 nM", "replicates with signal": "3 of 3"}
{"changes": "G26T+Y52R+G55C", "Kd (apparent)": "not detected", "replicates with signal": "0 of 3"}
{"changes": "N30H+G61W+S63I", "Kd (apparent)": "not detected", "replicates with signal": "0 of 3"}
{"changes": "T28M+G33L+S107F", "Kd (apparent)": "110 µM", "replicates with signal": "1 of 3"}
{"changes": "G61Q+D62T", "Kd (apparent)": "140 nM", "replicates with signal": "3 of 3"}
{"changes": "D62L+V64K+T104H", "Kd (apparent)": "not detected", "replicates with signal": "0 of 3"}
{"changes": "I34G+I51C", "Kd (apparent)": "42 µM", "replicates with signal": "2 of 3"}
{"changes": "Y60M+G103C+T104Y", "Kd (apparent)": "350 nM", "replicates with signal": "3 of 3"}
{"changes": "I34W+I51G+A101V", "Kd (apparent)": "not detected", "replicates with signal": "0 of 3"}
{"changes": "S31H+I34P+I51N", "Kd (apparent)": "not detected", "replicates with signal": "0 of 3"}
{"changes": "I51C+A101M+S107H", "Kd (apparent)": "2.6 µM", "replicates with signal": "1 of 3"}
{"changes": "L29D+G61M+G103I", "Kd (apparent)": "not detected", "replicates with signal": "0 of 3"}
{"changes": "T28P+I51M+V64D", "Kd (apparent)": "not detected", "replicates with signal": "0 of 3"}